Data reported in patent US20040053822A1, “Inducing cellular immune responses to mage2/3 using peptide and nucleic acid compositions” (priority 2002, published 2004).

Chains of the proteins cited; added tags and fusions are not shown. Lines headed by an entry give the natural chain unless they say otherwise; changes in a name come on top.
UniProt P04439: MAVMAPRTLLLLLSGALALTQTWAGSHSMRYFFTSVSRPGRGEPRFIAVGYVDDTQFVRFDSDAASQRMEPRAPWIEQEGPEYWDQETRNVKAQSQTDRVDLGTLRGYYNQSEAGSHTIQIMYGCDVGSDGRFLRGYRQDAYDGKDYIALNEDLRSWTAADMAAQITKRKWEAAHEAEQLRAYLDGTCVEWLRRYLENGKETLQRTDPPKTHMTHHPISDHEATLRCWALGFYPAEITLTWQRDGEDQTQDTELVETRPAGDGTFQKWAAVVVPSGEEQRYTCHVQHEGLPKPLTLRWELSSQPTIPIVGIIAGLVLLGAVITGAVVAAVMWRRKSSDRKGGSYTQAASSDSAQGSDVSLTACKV

Experiments:
[1] = test system: peptide-specific CTL from PBMC; experiment: CTL immunogenicity of A3, B7 supermotif and A1, A24 motif peptides (methodology analogous to A2); format: cell-based, human; details: B7 supermotif peptide, positive/total tested
[2] = test system: A2-supertype molecules (A*0201, A*0202, A*0203, A*0206, and A*6802); experiment: A2-supertype cross-reactive binding (five alleles); parameters: species or system human
[3] = target: HLA-A*0202 (Homo sapiens, UniProt P04439, D140Y/D185E/D98H/E176V/E277Q/G131W/G231S/I119L/I121R/I166T/I218V/L180W/L300P/L318F/N151K/N90K/P208A/P217A/Q67R/Q86G/Q94H/R138H/R169H/T345S); experiment: Purified HLA class I peptide binding assay, A*0202; details: binding affinity, A2 supermotif peptides and analogs
[4] = target: HLA-A*0201 (Homo sapiens, UniProt P04439, D140Y/D185E/D98H/E176V/E277Q/G131W/G231S/I119V/I121R/I166T/I218V/L300P/L318F/N151K/N90K/P208A/P217A/Q86G/Q94H/R138H/R169H/T345S); experiment: Purified HLA class I peptide binding assay, A*0201; details: Table XXVIIa

Row | No. A2 Alleles Crossbound ([2]; of five A2-supertype alleles tested) | No. A2 Alleles Crossbound ([2]; of five A2-supertype alleles, Table XXVIIa) | IC50 [3] [nM] | IC50 [4] [nM] | Compound | CTL Wild-type [1] | CTL Tumor ([1]; tumor targets)
1 | – | – | – | – | CC[C@H](C)[C@H](NC(=O)[C@H](Cc1ccc(O)cc1)NC(=O)[C@H](CC(C)C)NC(=O)[C@H](Cc1c[nH]cn1)NC(=O)[C@H](CO)NC(=O)[C@@H](NC(=O)[C@@H]1CCCN1C(=O)[C@@H](N)C(C)C)[C@@H](C)CC)C(=O)N[C@@H](CC(C)C)C(=O)O | 6/6 | 0/6
2 | 5 | 4 | 15 | 9.8 | CSCC[C@H](NC(=O)[C@@H](N)CCCCN)C(=O)N[C@H](C(=O)N[C@@H](CCC(=O)O)C(=O)N[C@@H](CC(C)C)C(=O)N[C@H](C(=O)N[C@@H](Cc1c[nH]cn1)C(=O)N[C@@H](Cc1ccccc1)C(=O)N[C@@H](CC(C)C)C(=O)O)C(C)C)C(C)C | – | –
